Target: Cyclin-dependent kinase 9 (Homo sapiens, UniProt P50750)
Assay: Inhibition of human CDK9

By UniProt entry, the sequences of proteins in these tests, tags left out.
UniProt P50750, whole entry: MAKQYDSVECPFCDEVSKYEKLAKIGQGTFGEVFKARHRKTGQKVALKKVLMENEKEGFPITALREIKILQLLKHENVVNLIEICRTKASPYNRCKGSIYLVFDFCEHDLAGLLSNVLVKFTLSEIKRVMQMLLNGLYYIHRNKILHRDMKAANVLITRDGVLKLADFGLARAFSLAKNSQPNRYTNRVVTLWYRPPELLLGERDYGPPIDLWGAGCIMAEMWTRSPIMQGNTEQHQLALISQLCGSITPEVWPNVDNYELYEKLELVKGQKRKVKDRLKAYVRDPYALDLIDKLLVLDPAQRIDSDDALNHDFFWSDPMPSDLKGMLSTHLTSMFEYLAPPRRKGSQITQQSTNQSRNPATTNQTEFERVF

IC50: 2 nM
Compound: CN1C/C=C/CCOc2cccc(c2)-c2ccnc(n2)Nc2cccc(c2)C1 [ZOTIRACICLIB]

Source: ChEMBL document CHEMBL4699469, “Recent Developments in the Biology and Medicinal Chemistry of CDK9 Inhibitors: An Update” (J Med Chem, 2020)
